Data on 28 compounds can be found in ChEMBL document CHEMBL1124268, “Approaches to protection against nerve agent poisoning. (Naphthylvinyl)pyridine derivatives as potential antidotes” (1988).

The species named for one test is Cavia porcellus. Put plainly: Selectivity ratio of I50 of AChE to I50 of CAT.
Test [1] addresses T1, Acetylcholinesterase (Rattus norvegicus) (UniProt P37136).
T1 sequence (whole entry): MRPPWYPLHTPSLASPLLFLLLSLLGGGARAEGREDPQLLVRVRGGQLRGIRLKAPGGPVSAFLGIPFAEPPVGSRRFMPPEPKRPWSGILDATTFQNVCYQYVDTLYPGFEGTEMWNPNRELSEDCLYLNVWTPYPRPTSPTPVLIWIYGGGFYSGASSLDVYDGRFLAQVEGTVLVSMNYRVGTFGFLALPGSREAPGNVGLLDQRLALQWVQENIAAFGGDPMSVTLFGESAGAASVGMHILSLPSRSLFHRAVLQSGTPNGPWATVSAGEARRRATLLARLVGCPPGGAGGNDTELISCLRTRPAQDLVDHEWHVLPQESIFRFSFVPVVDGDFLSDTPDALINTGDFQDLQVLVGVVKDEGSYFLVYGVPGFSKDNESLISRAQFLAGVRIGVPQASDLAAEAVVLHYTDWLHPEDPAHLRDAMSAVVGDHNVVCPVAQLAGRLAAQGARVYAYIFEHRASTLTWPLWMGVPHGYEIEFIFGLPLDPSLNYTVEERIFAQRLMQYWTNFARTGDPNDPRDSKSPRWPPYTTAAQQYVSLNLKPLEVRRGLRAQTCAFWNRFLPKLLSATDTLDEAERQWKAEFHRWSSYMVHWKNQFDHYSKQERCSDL
Put plainly: Effect on rate of aging of soman-inhibited acetylcholinetransferase (AChE) of rat erythrocyte lysate at 0.1 mM, ratio of control/treated.

In test [2] the target is T1, Acetylcholinesterase (Rattus norvegicus). Put plainly: Effect on rate of aging of soman-inhibited acetylcholinetransferase (AChE) in rat erythrocyte lysate at 1 mM, ratio of control/treated.
The target is the same in test [3]. The test can be described thus: Inhibition of aging rate in soman-inhibited acetylcholinetransferase (AChE) assay of rat erythrocyte lysate at 1 mM.
Test [4] has the same target. The test can be described thus: Effect on rate of aging of soman-inhibited acetylcholinetransferase (AChE) from rat erythrocyte lysate at 1 mM, ratio of control/treated.
Test [5] shares this target. The test can be described thus: Inhibition of aging rate in soman-inhibited acetylcholinetransferase (AChE) assay in rat erythrocyte lysate at 1 mM, ratio of control/treated.

The structures appear in SMILES notation.

On to `COc1ccc2ccccc2c1/C=C/c1cc[n+](C)cc1`, for which the values for the Ratio (in the test listed under Cavia porcellus; in test [1]) were 1.1 and 1.9, respectively.
Turning to `CN1CC=C(/C=C/c2cccc3ccccc23)CC1`, the Ratio in the test listed under Cavia porcellus stood at 112.
As for `CCCCCC[n+]1ccc(/C=C/c2cccc3ccccc23)cc1`, the Ratio in the test filed under Cavia porcellus turned out to be 7.6; in test [1], 1.2.
Consider `C[N+]1(C)CC=C(/C=C/c2cccc3ccccc23)CC1`, for which the Ratio was less than 0.9 in the test listed under Cavia porcellus and 1 in test [1].
In the case of `C[n+]1ccc(/C=C/c2c3ccccc3cc3ccccc23)cc1`, the Ratio stood at 0.2 in the test filed under Cavia porcellus and 1.6 in test [1].
In the same order, the values of `COc1ccc(/C=C/c2cc[n+](CCO)cc2)c2ccccc12` are 1.6 and 1.6.
In the case of `C[n+]1ccc(/C=C/c2cccc3ccccc23)cc1N`, the Ratio came out at 6 in the test filed under Cavia porcellus and 1.9 in test [2].
Consider `CN1CCC(/C=C/c2cccc3ccccc23)CC1`, for which the Ratio is 0.2 in the test listed under Cavia porcellus, 0.9 in test [1] and 1 in test [3].
As for `COc1ccc(/C=C/c2cc[n+](C)cc2)c2ccccc12`, the Ratio in the test filed under Cavia porcellus turned out to be 0.2; in test [1], 3.4.
For the compound `C[n+]1ccc(/C=C/c2ccc(OCc3ccccc3)cc2)cc1`, the Ratio in the test filed under Cavia porcellus came to 0.
As for `C[n+]1ccc(/C=C/c2cccc3ccccc23)cc1`, the Ratio in the test listed under Cavia porcellus amounted to 353; in test [1], 1.4.
For `C[n+]1ccc(CCc2cccc3ccccc23)cc1`, the Ratio was 1.3 in the test filed under Cavia porcellus and 1 in test [1].
Consider `OCCN1CCC(CCc2cccc3ccccc23)CC1`, for which the Ratio in the test listed under Cavia porcellus came out at 0.9; in test [4] it was 1.
Consider `C[n+]1ccc(/C=C/c2cc3ccccc3c3ccccc23)cc1`, for which the Ratio in the test listed under Cavia porcellus stood at 0; in test [2] it was 0.8.
In the case of `C[n+]1ccc(C#Cc2cccc3ccccc23)cc1`, the Ratio in the test filed under Cavia porcellus stood at 39; in test [1] it was 0.9; in test [5], 3.1.
With `CCCCCCN1CC=C(/C=C/c2cccc3ccccc23)CC1`, the Ratio in the test filed under Cavia porcellus is 1; in test [1], 1.1.
Taken in the same sequence, the figures for `[O-][n+]1ccc(/C=C/c2cccc3ccccc23)cc1` were more than 1.8 and 0.7.
With `C[n+]1cccc(NC(=O)Nc2cccc3ccccc23)c1`, the Ratio in the test filed under Cavia porcellus was determined as 0.4.
Consider `COc1ccc(/C=C/c2cc[n+](C)cc2)cc1OC`, for which the Ratio worked out at 1.8 in the test listed under Cavia porcellus and 1.6 in test [1].
As for `COc1ccc(/C=C/c2cccc[n+]2C)c2ccccc12`, the values for the Ratio (in the test filed under Cavia porcellus; in test [1]) were 0.3 and 1.3, respectively.
Regarding `OCC[n+]1ccc(/C=C/c2cccc3ccccc23)cc1`, the Ratio worked out at 56.7 in the test listed under Cavia porcellus and 1 in test [1].
`C[n+]1ccc(NC(=O)Nc2cccc3ccccc23)cc1`: the Ratio in the test listed under Cavia porcellus turned out to be 0.3; in test [1] it was 1.1.
With `CN1CCC(CCc2cccc3ccccc23)CC1`, the Ratio in the test filed under Cavia porcellus turned out to be 0.4; in test [2], 1.1.
For `CC(=O)Nc1cc(/C=C/c2cccc3ccccc23)cc[n+]1C`, the Ratio in the test filed under Cavia porcellus was 243; in test [2], 1.4.
Turning to `CN1CC=C(c2ccccc2)CC1`, the Ratio in the test filed under Cavia porcellus turned out to be 0.9.
Take `C[n+]1ccc(/C=C/c2ccccc2)cc1`: the Ratio in the test listed under Cavia porcellus was 100; in test [2], 2.6.
With `C[n+]1ccc(/C=C/c2ccc(Cl)c(Cl)c2)cc1`, the Ratio in the test filed under Cavia porcellus was determined as 5.3; in test [1], 0.5.
For the compound `C[n+]1ccccc1/C=C/c1cccc2ccccc12`, the values for the Ratio (in the test filed under Cavia porcellus; in test [1]) were 29.1 and 1.5, respectively.
